Assay results as given in patent US9029127B2, “Method of degrading TBP using a photosynthetic bacterial strain” (priority 2003, dated 2015).

Experiments:
[1] = system: proteins extracted from Rp. palustris CGA009; assay: TBP degradation by cell extracts and protein fractions (enzyme assays); format: biochemical, Rhodopseudomonas palustris; conditions: crude cell extract, 40° C., Michaelis-Menten fit
[2] = system: Rp. palustris CGA009 (ATCC BAA-98); assay: Growth of Rp. palustris CGA009 in the presence of TBP (OD660)
[3] = cited from earlier work
[4] = system: Rp. palustris CGA009 (ATCC BAA-98); assay: TBP degradation by Rp. palustris CGA009 cultures (residual TBP by HPLC); conditions: 2 mM TBP
Rp. palustris ΔpRpa1 = assay: Growth and TBP degradation of the plasmid-free Rp. palustris strain; format: cell-based, Rhodopseudomonas palustris; conditions: plasmid-free strain compared with the wild-type strain

Structure (SMILES): CCCCOP(=O)(OCCCC)OCCCC
- Kmap (apparent TBP concentration for half the maximum activity) [1]: 2.6 ± 0.4 mM and 2.6 mM
- Vmap (apparent maximum rate) [1]: 0.48 ± 0.04 mM/h and 0.48 mM/h
- inhibition of bacterial growth ([2]; TBP concentrations of the order of 0.1 to 2 mM): no inhibition of bacterial growth
- growth of the strain in the presence of TBP ([2]; strict anaerobiosis, 2 mM TBP): no growth is observed
- theoretical maximum solubility of TBP in water ([3]; 25° C.): 1000 mg per liter
- solubility of TBP in water [3]: approximately 2.5 mM
- amplitude of TBP degradation (monophasic) ([4]; aerobiosis): 28%
- initial TBP consumption rate ([4]; aerobiosis): 13 µmol/L/h
- amplitude of TBP degradation, first exponential ([4]; microanaerobiosis): 23%
- amplitude of TBP degradation, second exponential ([4]; microanaerobiosis): 77%
- initial TBP consumption rate ([4]; microanaerobiosis): 15 µmol/L/h
- growth in a medium containing TBP (Rp. palustris ΔpRpa1): grows in a medium containing TBP, like the wild-type strain

Several values for one entry are separate records, joined by “and”; a condition that tells them apart may be missing. Equal values may be shown once.
